System: blood platelets, lymphocytes, eosinophils, monocytes
Assay: Blood chemistry / hematological parameters, Example 3
Format: in vivo, Mongolian gerbils
Conditions: old gerbils, end of 6 month feeding (FIG. 3C)

Compound: O=C(O)CCC(=O)C(=O)O [AKG, alpha-ketoglutaric acid]
- eosinophile count: but not by AKG by itself or ENZ by itself

Source: patent publication US9592211B2, “Compositions for improvement of brain function” (GRESPO AB, priority 2012, dated 2017)
